In this assay the target is PDGF BB (human) (UniProt P01127). Put plainly: cell-based or functional assay.

For 1 substance, BrdU incorporation OD-blank, CCD1070 cells, BB + betaR Fc (BB alone 0.7535; + MOPC21 0.676) and BrdU incorporation OD-blank, NIH/3T3 cells, BB + betaR Fc (BB alone 0.983; + MOPC21 0.995) results are on record in US20020094546A1.

In the case of “soluble beta PDGF receptor-IgFc fusion (R&D Systems) (from UniProt P09619 33-530)”, the BrdU incorporation OD-blank, CCD1070 cells, BB + betaR Fc (BB alone 0.7535; + MOPC21 0.676) was found to be 0.177 OD-blank and the BrdU incorporation OD-blank, NIH/3T3 cells, BB + betaR Fc (BB alone 0.983; + MOPC21 0.995) was determined as 0.319 OD-blank.
